{"source": "patent US20250313530A1", "about": "“SMALL MOLECULE INHIBITORS OF INTERLEUKIN-4 AND USES THEREOF” (Trustees of Boston University, priority 2024, published 2025)", "biological_target": "T1, IL-4 (Homo sapiens, UniProt P05112)", "T1 construct": "purchased Acros Biosystems IL4-H4218; host or cells: HEK-293", "T1 sequence (P05112 25-153)": "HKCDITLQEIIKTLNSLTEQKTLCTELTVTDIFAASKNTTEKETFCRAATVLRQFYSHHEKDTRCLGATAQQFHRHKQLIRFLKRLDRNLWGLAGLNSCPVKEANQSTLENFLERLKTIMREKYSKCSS", "assay": "HEK-Blue IL-4/IL-13 reporter assay, IL-4 inhibition", "format": "cell-based", "description": "HEK-Blue IL-4/IL-13 Inhibition assay. HEK-Blue IL-4/IL-13 reporter cell lines were purchased from Invivogen and cultured in DMEM with 10% Heat Inactivated Fetal Bovine Serum (FBS), 100 U/ml-100 μg/ml Pen-Strep, 10 μg/ml blasticidin, 100 μg/ml Normocin and 100 μg/ml Zeocin. Cells were tested for secreted embryonic alkaline phosphatase (SEAP) production induced by IL-4 alone prior to small molecule screening.\n22.5 μl of small molecule in DMEM 4% DMSO was added to 22.5 μl of 1 ng/ml IL-4 in DMEM in a non-binding 96-well reaction plate for 30 minutes at room temperature. The reaction plate was further incubated for 30-60 min at 37° C. HEK-Blue IL-4/IL-13 reporter cell line was used between passages 11-17. […] Measurements were done in triplicate. The plate was incubated for ˜22-24 hours at 37° C./5% CO2. Quanti-Blue dye was prepared as per the manufacturer's recommendation and 160 μl was dispensed in each well of a 96-well plate (avoid edges to avoid evaporation), 40 μl of cell supernatant was added to the same plate and incubated for 3 hours at 37° C./5% CO2. Optical density was then measured at 650 nm using Molecular Devices SpectraMax M5 Microplate reader. Data was analyzed and plotted using GraphPad Prism 9.2.0."}
{"compound": "N#Cc1c(-c2ccc(O)cc2)cc(-c2ccc(F)cc2)[nH]c1=O", "note": "[Compound 46, 6-(4-fluorophenyl)-4-(4-hydroxyphenyl)-2-oxo-1,2-dihydropyridine-3-carbonitrile]", "values": [{"measurement": "inhibition at 10 µM", "value": "47.2 ± 12.1", "unit": "%"}]}
